Laboratory results taken from US8785396B2, “Method and composition for treating migraines” (Mannkind Corporation, priority 2007, dated 2014).

Assays:
[1] = Sumatriptan pharmacokinetics in female Sprague Dawley rats; conditions: for Cmax: dose-normalized
[2] = system: carotid vasodilation; conditions: regardless of the route of administration, anesthetized dogs
[3] = system: patients diagnosed with type 2 diabetes; assay: Meal challenge study in type 2 diabetes patients: GLP-1 levels, insulin, glucose, gastric emptying; assay type: in vivo, human
Description: Period 2 was performed after completion of Period 1.

[4] = Oxyntomodulin pharmacokinetics in rats after pulmonary insufflation of oxyntomodulin/FDKP powder; assay type: in vivo, rat
[5] = stated as general property; cited from earlier work

sumatriptan
t1/2 ([1]; Group 2, IV): 30.4 min | Cmax ([1]; Group 2, IV): 26,719 ng/mL/mg | Cmax ([1]; Group 3, SC): 2309 ng/mL/mg | tolerability ([1]; across all treatment groups, female Sprague Dawley rats): well tolerated | Blood pressure and heart rate [2]: unaltered

exenatide [reference compound]
GLP-1 levels in blood ([3]; 10 μg exenatide by subcutaneous injection): no measurable levels of GLP-1 | gastric emptying versus controls ([3]; 10 μg exenatide subcutaneous): significant delay or inhibition in gastric emptying

oxyntomodulin
maximal plasma concentration ([4]; rats receiving 1.5 mg): 311 µg/mL | maximal plasma concentration ([4]; rats receiving 3 mg): 660 µg/mL

glucagon-like peptide 1 [GLP-1]
GLP-1 levels in blood ([3]; 1.5 mg of GLP-1 in FDKP, inhaled, fed or fasted): significantly higher levels of GLP-1 | half-life of GLP-1 [5]: 1 to 2 min
